Antibody variant affinities, Ab-14 light chain, assay B

The target is the same throughout: PDVDLGDISGINAS, from the HR2 region of SARS-CoV-2 spike.

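The parent was found by panning a naive human phage display library on the peptide. Designed CDR sequences, proposed from the first random library and measured here. Their group label is 14L_GP_Gen (GP: Gaussian process model; Gen: genetic algorithm; a sequence that several methods proposed may carry one label only). AlphaSeq pools MATa yeast showing the antibodies with MATalpha yeast showing the peptide. After mating in shaken culture at 30 °C for 16 h, diploids were selected and their barcode pairs sequenced. The ratio of observed to expected reads was calibrated, replicate by replicate, on BCL2-family standards whose Kd was known from biolayer interferometry. Each pool was mated in six replicate cultures.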

Ab-14 is the parent antibody, in scFv form: VH, then a 15-residue (Gly4Ser)3 linker, then VL. The heavy chain is unchanged in all variants.
VH: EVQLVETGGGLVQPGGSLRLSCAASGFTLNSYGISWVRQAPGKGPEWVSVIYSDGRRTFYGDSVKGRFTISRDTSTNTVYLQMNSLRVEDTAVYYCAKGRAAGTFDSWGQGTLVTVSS
VL: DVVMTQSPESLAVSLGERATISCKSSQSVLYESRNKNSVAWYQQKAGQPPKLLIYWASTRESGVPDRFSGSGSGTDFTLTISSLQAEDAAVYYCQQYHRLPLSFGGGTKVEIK

Each variant is given by its three light chain CDRs, as the data file delimits them; those of the parent are KSSQSVLYESRNKNSVA, WASTRES, QQYHRLPLS. Numbers give log10(Kd / nM), so 0 is 1 nM and 3 is 1 µM. Smaller is tighter. Of ten entries with the parent sequence, four were seen in most replicates (averages 0.34 to 2.37), three in one and three in none, so single entries are noisy. The authors' rule: three or more of the six replicates give a measured affinity, fewer mean a poor binder. Values of this round are not directly comparable with the first-round values of the same sequences. Nonspecific signal, from three strains lacking the peptide, appeared in 4% of pairings of all light chain designs, centred on 2.64 (5% of these signals below 1.59); values are not corrected for it. The control count says in how many pairings with the empty strains this scFv gave a signal, with their mean in brackets.

| CDR-L1 | CDR-L2 | CDR-L3 | log10 Kd, replicates | empty controls |
|---|---|---|---|---|
| KLMQSVDYESRNKNSVA | NASTRES | QQYHRLPLS | 0.05 -0.03 -0.14 -0.08 0.04 -0.02 | 2/18 (2.59) |
| FLSQSVLYESRNKNSVA | NASTRES | QQYHRLPLS | -0.03 -0.11 -0.28 -0.28 -0.36 -0.03 | 3/18 (3.71) |
| KFSQSVLYESRNKNSVA | NASQREQ | QQYHRLPLS | -0.30 -0.45 -0.47 -0.53 -0.30 -0.40 | 0/18 |
| KSSQSVLYESRNKNSVA | NGSTRES | QQYHRLPLS | 0.53 0.55 0.49 0.39 0.39 0.54 | 3/18 (3.63) |
| KLMQSELYESRNKNSVA | NASKRES | QQYHRLPLS | 0.97 0.67 0.29 0.92 0.55 1.19 | 1/18 (2.98) |
| KLSQSVGYESRNKNSVA | DASTRES | QQYHRLPLS | -0.20 -0.54 -0.61 -0.87 -0.50 -0.54 | 0/18 |
| KLPQSVLYESRNKNSVA | NASTRFS | QQYHRLPLS | 0.28 -0.05 0.00 -0.09 -0.13 0.08 | 0/18 |
| KLEQSVLYESRNKNNVA | EASTRES | QQYHRLPLS | -0.36 -0.59 -0.51 -0.75 -0.71 -0.53 | 0/18 |
| KLSQSELYESRNKNAVA | EASTRES | QQYHRLPLS | -0.14 -0.05 -0.19 -0.25 -0.22 -0.10 | 0/18 |
| KFSQSWLYEDRNKNSVA | NASQRES | QQYHRLPLS | -0.31 -0.36 -0.45 -0.56 -0.50 -0.31 | 0/18 |
| KLEQSWLYESRNPNSVA | NASQRES | QQYHRLPLS | 0.05 -0.10 -0.05 -0.32 0.22 -0.21 | 0/18 |
| KLSQSVQYESRNKNSVA | DASTRES | QQYHRLPLS | -0.64 -0.57 -0.58 -0.46 -0.60 -0.37 | 0/18 |
| KLSQSVLYESRNKNSVA | QASQRES | QQYHRLPLS | 0.01 -0.01 -0.16 -0.09 -0.01 -0.08 | 3/18 (2.80) |
| KLSQLWLYESRNKNSVA | NASTRED | QQYHRLPLS | 0.05 -0.10 0.02 0.08 0.01 0.01 | 5/18 (2.96) |
| KLSQSEQYESRNKNSVA | NASQRES | QQYHRLPLS | -0.35 -0.28 -0.08 -0.26 -0.31 0.02 | 0/18 |
| KVSQSVLYESRNKNSVA | EASTRLS | QQYHRLPLS | 0.17 0.19 0.08 0.00 -0.21 0.18 | 2/18 (2.74) |
| KLSGSMLYESRNKNSVA | DASTRES | QQYHRLPLS | -0.41 -0.41 -0.52 -0.45 -0.30 -0.33 | 1/18 (1.87) |
| KLPQSEPYESRNKNSVA | NASTRES | QQYHRLPLS | 0.14 0.00 -0.16 -0.12 -0.14 0.06 | 1/18 (4.04) |
| KLSQSVLYQSRNKNSVA | NASTRES | QDYHRLPLS | 0.11 0.56 1.42 0.22 0.09 0.74 | 0/18 |
| KLSQSVPYESRNKNSVA | EASTREQ | QQYHRLPLS | 0.19 0.05 0.01 -0.10 -0.36 0.14 | 0/18 |
| KMSQSVWYESRNKNSVA | NASTRES | QQYHRLPLS | 0.34 0.13 -0.05 0.07 -0.13 0.03 | 2/18 (2.90) |
| KFSQSWLYESRNKNSVA | NASTRES | QQYHRLPLS | 0.09 0.02 -0.36 -0.25 -0.14 -0.03 | 1/18 (2.71) |
| KVSMSYLYESRNKNSVA | NASTRES | QQYHRLPLS | -0.10 -0.04 -0.04 -0.23 -0.08 0.03 | 1/18 (2.13) |
| KLPQSVLYESRNKNSVA | QASTRES | QQYHRLPLM | -0.10 -0.27 -0.38 -0.45 -0.29 -0.23 | 1/18 (3.64) |
| KLSQSHLYESRNKNSVA | NASTREQ | QQYHRLPLS | 0.14 -0.02 0.07 -0.07 0.00 0.19 | 0/18 |
| KLPQSWLYESRNKNSVA | NASQRES | QQYHRLPLS | -0.30 -0.48 -0.48 -0.48 -0.39 -0.40 | 2/18 (3.86) |
| KLSQSWLYESRNKNSVA | NASQRCS | QQYHRLPLS | 0.24 0.07 0.09 -0.02 -0.01 0.21 | 3/18 (2.91) |
| KMPQSVLYESRNKNSVA | NASTRMS | QQYHRLPLS | 0.04 0.07 -0.10 -0.32 -0.10 -0.10 | 5/18 (3.37) |
| KLSQDVLYESRNKNSVA | NASTRES | QQYHRLPLS | -0.21 -0.33 -0.38 -0.54 -0.39 -0.20 | 2/18 (2.39) |
| KLSQSQLYESRNKNSVA | NASTRCD | QQYHRLPLS | -0.33 -0.24 -0.19 -0.52 -0.42 -0.22 | 1/18 (1.35) |
| KLSQSMLYESRNKNSVA | HASQRLS | QQYHRLPLS | -0.02 0.17 -0.19 -0.15 0.15 0.25 | 1/18 (1.96) |
| KLSQSNLYESRNKNSVA | NASTREQ | QQYHRLPLS | -0.27 -0.61 -0.52 -0.82 -0.62 -0.17 | 1/18 (2.41) |
| KLQGSELYESRNKNSVA | EASTRES | QQYHRLPLS | 0.27 0.16 0.26 0.07 0.52 0.11 | 0/18 |
| KLEQSWLYESRNKNSVA | EASTRES | QQYHRLPLS | -0.38 -0.33 -0.35 -0.41 -0.36 -0.30 | 2/18 (2.24) |
| KLSQSDLYESRNPNSVA | NASTRES | QQYHRLPLS | -0.30 -0.41 -0.63 -0.84 -0.73 -0.47 | 0/18 |
| KMSQSVLYESRNKNSVA | NGSTRES | QQYHRLPLS | 0.39 0.42 0.18 0.22 0.41 0.28 | 3/18 (3.12) |
| KLSQSVLYESRNKNSVA | NASTRES | QQYHRLPLH | 0.10 0.24 0.40 0.09 -0.20 0.45 | 2/18 (2.97) |
| KVSQSVLYESRNKNSVA | NASTREV | QQYHRLPLS | -0.15 -0.23 -0.44 -0.35 -0.37 -0.09 | 0/18 |
| KLSQSQLYESRNKNSVA | NASQREV | QQYHRLPLS | -0.24 -0.47 -0.21 -0.37 -0.49 -0.34 | 0/18 |
| KLQQSVLYESRNKNSVA | QASQRES | QQYHRLPLS | -0.07 -0.01 -0.15 -0.50 -0.16 -0.21 | 0/18 |
| KLSQSELYESRNKNSVA | EASTRYS | QQYHRLPLS | -0.04 -0.05 -0.32 -0.16 -0.34 -0.09 | 0/18 |
| KMYQSVLYESRNKNSVA | NASQRES | QQYHRLPLS | 0.12 -0.16 -0.30 -0.33 -0.08 0.01 | 1/18 (3.35) |
| KLEYSWLYESRNKNSVA | NASQRES | QQYHRLPLS | 0.38 0.30 0.42 0.83 0.35 0.75 | 1/18 (2.98) |
| KLSQSDLYESRNKNSVA | GASTRLS | QQYHRLPLS | -0.03 -0.04 -0.11 -0.21 0.00 0.01 | 5/18 (2.79) |
| KLSQSVDYESRNKNSVA | DASTRLS | QQYHRLPLS | -0.07 -0.09 -0.24 -0.47 0.02 -0.10 | 1/18 (3.23) |
| KLEQSWLYESRNKNSVA | NASTRYS | QQYHRLPLS | 0.10 -0.19 -0.13 -0.41 -0.26 0.22 | 0/18 |
| KLSQSVEYESRNKNSVA | SASTRES | QQYHRLPLS | 0.14 -0.27 -0.13 -0.36 -0.11 -0.10 | 0/18 |
| KLPQSELYESRNKNSVA | NASQREE | QQYHRLPLS | 0.15 0.06 0.27 -0.20 0.17 0.30 | 1/18 (1.97) |
| KIEQSVLYESRNKNSVA | NASTRMS | QQYHRLPLS | 0.19 -0.02 0.16 -0.08 -0.10 0.11 | 0/18 |
| KLSQGYLYESRNKNSVA | NASTRES | QQYHRLPLS | 0.10 0.00 -0.08 0.12 -0.14 0.01 | 1/18 (3.95) |
| KLQQSVLVESRNKNSVA | NASTRES | QQYHRLPLS | -0.29 -0.20 -0.27 -0.28 -0.27 0.04 | 1/18 (1.47) |

For reference, 6 entries of the list once more:

CDR-L1,CDR-L2,CDR-L3,"log10 Kd, replicates",empty controls
KLPQSVLYESRNKNSVA,QASTRES,QQYHRLPLM,-0.10 -0.27 -0.38 -0.45 -0.29 -0.23,1/18 (3.64)
KVSQSVLYESRNKNSVA,EASTRLS,QQYHRLPLS,0.17 0.19 0.08 0.00 -0.21 0.18,2/18 (2.74)
KLEYSWLYESRNKNSVA,NASQRES,QQYHRLPLS,0.38 0.30 0.42 0.83 0.35 0.75,1/18 (2.98)
KSSQSVLYESRNKNSVA,NGSTRES,QQYHRLPLS,0.53 0.55 0.49 0.39 0.39 0.54,3/18 (3.63)
KLSQSELYESRNKNAVA,EASTRES,QQYHRLPLS,-0.14 -0.05 -0.19 -0.25 -0.22 -0.10,0/18
KLPQSVLYESRNKNSVA,NASTRFS,QQYHRLPLS,0.28 -0.05 0.00 -0.09 -0.13 0.08,0/18

Reference: Li et al. 2023, doi:10.1038/s41467-023-39022-2. File: FLAb, binding data.